The record followed here is US20150253306A1 (priority 2012, published 2015).

For this series, the system named is Human platelets. Nature of the series: mitochondrial toxicity assay, high-resolution respirometry of FCCP-uncoupled human platelets. The settings on record: for comparison of safety with respect to mitochondrial toxicity between two drugs: two titration experiments compared, human platelets (FIGS. 7-9).

On to `COCc1c(C(C)C)nc(C(C)C)c(/C=C/[C@@H](O)C[C@@H](O)CC(=O)O)c1-c1ccc(F)cc1` [Cerivastatin], for which, under “Human platelets 200*10^6 cells/ml, buffer pH 7.1, FCCP 2 μM, increasing concentrations, then rotenone 2 μM and antimycin 1 μg/ml”, the “mitochondrial toxicity (oxygen flux on titration of the drug)” value is recorded as “displays mitochondrial toxicity as shown by decreased oxygen fluxes with higher concentrations”.
`CN(CCOc1ccc(CC2SC(=O)NC2=O)cc1)c1ccccn1` (stereo not drawn) [Rosiglitazone]: the “comparison of safety with respect to mitochondrial toxicity between two drugs” value was “safer drug substance than troglitazone”.
For `C[C@H]1c2cccc(O)c2C(=O)C2=C(O)[C@]3(O)C(=O)C(C(N)=O)=C(O)[C@@H](N(C)C)[C@@H]3[C@@H](O)[C@@H]21` [Doxycycline], the “comparison of safety with respect to mitochondrial toxicity between two drugs” value is “safer than minocycline”.
